{
  "source": "patent US9420796B2",
  "about": "(priority 2013, dated 2016)",
  "tested_on": "zebra mussel veligers",
  "settings": "in vivo",
  "data": [
    {"substance": "chlorine", "values": [
      {"measurement": "Dead veligers estimated in the first portion of the experimental tank", "result": "approximately 231,800"}
    ]}
  ]
}
